Results reported in ChEMBL document CHEMBL1137073, “Development of irreversible diphenyl phosphonate inhibitors for urokinase plasminogen activator” (J Med Chem, 2004).

Molecular target: Urokinase-type plasminogen activator (Homo sapiens, UniProt P00749)
Experiment: Inhibitory activity against Urokinase-type plasminogen activator

## C[C@H](NC(=O)[C@@H](CO)NC(=O)OCc1ccccc1)C(=O)NC(CCCN=C(N)N)P(=O)(Oc1ccccc1)Oc1ccccc1 (stereo partly specified)
  K app: 1.77 M⁻¹ s⁻¹
